This is a selection; strong and weak results do not stand in their true shares. Activity calls are given as the source filed them. Rule as the data show it: active = activation mostly above about 9.5% (no sharp cut-off); inactive = mostly below about 7.6%.
target: 5-hydroxytryptamine receptor 5A (Homo sapiens) (UniProt P47898); assay: HTR5A agonists in luminescence cell assay, primary screen, counter-screen for OPRM1-OPRD1 heterodimer agonist project, full-deck HTS (AID 504692); conditions: cell-based, at 9.3 µM, active compounds read high;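 also: 0% = cells with vehicle only and 100% = reference agonist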

By UniProt entry, the sequences of proteins in these tests, tags left out.
UniProt P47898, whole entry, looked up: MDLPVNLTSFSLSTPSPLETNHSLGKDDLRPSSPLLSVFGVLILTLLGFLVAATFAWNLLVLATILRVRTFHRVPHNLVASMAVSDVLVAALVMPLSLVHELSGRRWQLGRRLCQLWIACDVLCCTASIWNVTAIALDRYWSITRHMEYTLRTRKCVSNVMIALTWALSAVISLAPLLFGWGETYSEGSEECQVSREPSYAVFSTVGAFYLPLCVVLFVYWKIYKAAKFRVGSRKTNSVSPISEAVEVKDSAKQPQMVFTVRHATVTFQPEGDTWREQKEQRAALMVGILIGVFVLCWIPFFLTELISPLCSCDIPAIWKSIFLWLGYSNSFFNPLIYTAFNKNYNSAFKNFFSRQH

| Structure (SMILES) | activation |
| --- | --- |
| CSCC[C@H](NC(=O)N1CCn2c1nc1ccccc12)C(=O)N1CCCCC1 | inactive: -2.55% |
| Cn1c(=O)n(CCc2ccccc2)c(=O)c2c1nc1n2CCN1Cc1ccco1 | inactive: 1.86% |
| C[C@H](NC(=O)N1CCn2c1nc1ccccc12)C(=O)NCc1ccc(F)cc1 | inactive: 2.84% |
| Cc1ccc2c(c1)C1CN(C)CCC1N2C(=O)c1ccccc1NS(=O)(=O)c1cccc(C(F)(F)F)c1 (stereo unspecified) | inactive: 4.15% |
| Oc1ccc(CC2(N3CCCC3)CCCCC2)cc1 | inactive: -3.75% |
| NNC(=O)Cn1cnc2ccccc21 | inactive: 2.38% |
| O=C(Nc1nc2ccccc2n1CCN1CCOCC1)c1ccccc1 | inactive: 1.37% |
| O=C(Cn1c(C(F)(F)F)nc2ccccc21)Nc1ccccc1N1CCOCC1 | inactive: 3.7% |
| COc1ccc(CNC(=O)Cn2cnc3c(OCc4ccccc4)ncnc32)cc1 | inactive: 5.03% |
| Cc1ccc(NCCc2c([N+](=O)[O-])cc([N+](=O)[O-])cc2[N+](=O)[O-])cc1 | inactive: 4.36% |
| O=C(Cn1c(CO)nc2ccccc21)NCCc1ccccc1 | inactive: 1.83% |
| Nc1cccc2c([As](=O)(O)O)cccc12 | inactive: 3.85% |
| c1ccc2c(c1)nc1n2CCN1 | inactive: -4.13% |
| CC(=O)Nc1nc2ccccc2n1CCN(C)C | inactive: 2.43% |
| Cc1ccc2c(c1)C1CN(C)CCC1N2C(=S)Nc1ccc(OC(F)F)cc1 (stereo unspecified) | inactive: -5% |
| O=C(Cn1cnc2c(NCc3ccccc3)ncnc21)NCC1CCCO1 (stereo unspecified) | inactive: 1.49% |
| O=C(Cn1cnc2c(NCc3ccccc3)ncnc21)NCc1ccccn1 | inactive: 0.92% |
| CC1CCC2C(=O)N(c3ccc(NC4CCN(Cc5ccccc5)CC4)c([N+](=O)[O-])c3)C(=O)C2C1 (stereo unspecified) | inactive: 2.78% |
| CC(C)[C@H](NC(=O)N1CCn2c1nc1ccccc12)C(=O)N[C@@H](C(=O)O)c1ccccc1 | inactive: 9.54% |
| CCCC(=O)Nc1nnc(/C=C/c2ccc(OC)cc2)s1 | inactive: -1.61% |
| CC(=O)Nc1ccc2c(c1)nc1n2CCN(C2CCCCC2)C1 | inactive: 1.39% |
| COc1cc(C2NCCC3(OCCO3)C2(C)C)cc(OC)c1OC (stereo unspecified) | inactive: 6.88% |
| Cn1c(=O)n(CC(N)=O)c2ccccc21 | inactive: -6.35% |

| Structure (SMILES) | activation |
| --- | --- |
| CCN(CC)CCn1c(NC(=O)c2ccc(Cl)cc2)nc2ccccc21 | inactive: 3.02% |
| Cc1ccc2c(c1)C1CN(C)CCC1N2S(=O)(=O)c1cc(C(F)(F)F)ccc1Cl (stereo unspecified) | inactive: 4.77% |
| O=C(Cn1c(NCCO)nc2ccccc21)NCC1CCCO1 (stereo unspecified) | inactive: -4.46% |
| O=C(Cn1c(-c2ccccn2)nc2ccccc21)N/N=C/c1ccccn1 | inactive: 4.52% |
| O=C(CCCCCNC(=O)N1CCn2c1nc1ccccc12)NCc1ccccc1Cl | inactive: 1.66% |
| COCCN1CCn2c(nc3cc(NC(=O)c4cccs4)ccc32)C1 | inactive: 7.49% |
| O=C(Cn1c(S(=O)(=O)Cc2ccccc2)nc2ccccc21)N1CCCCC1 | inactive: 14.8% |
| COc1cccc(CNc2nc3ccccc3n2CCN2CCCCC2)c1 | inactive: 6.88% |
| O=C(CSc1nc2ccccc2n1CC(=O)N1CCCC1)Nc1ccc2c(c1)OCO2 | inactive: 3.37% |
| O=C(Nc1ccc2c(c1)nc1n2CCN(C2CCCCC2)C1)c1ccco1 | inactive: 4.87% |
| O=C(Nc1ccccc1)N1CCn2c(nc3ccccc32)C1 | inactive: 0.35% |
| COc1cccc(CNC(=O)[C@H](CC(C)C)NC(=O)N2CCn3c2nc2ccccc23)c1 | inactive: 1.02% |
| COc1ccc(CNC(=O)[C@H](C)NC(=O)N2CCn3c2nc2ccccc23)cc1 | inactive: -1.56% |
| CCOC(=O)CC[C@H](NC(=O)Cn1cnc2c(OCc3ccccc3)ncnc21)C(=O)OCC | inactive: 5.73% |
| CCOP(=O)(Nc1cccc2ccccc12)OCC | inactive: 4.38% |
| O=[As](O)(O)c1cccnc1 | inactive: 2.48% |
| O=C(Cn1cnc2ccccc21)N/N=C/c1cccnc1 | inactive: -1.97% |
| CN(C)C(=O)Cn1c(=O)n(C)c2ccccc21 | inactive: 0.03% |
| Cn1c(=O)c2c(ncn2CC(=O)N2CCCCCC2)n(C)c1=O | inactive: -4.07% |
| CCC(C)N(C(=O)Cn1cnc2c1c(=O)n(C)c(=O)n2C)C1CCS(=O)(=O)C1 (stereo unspecified) | inactive: -1.14% |
| Cc1nc2cc(C(F)(F)F)ccc2n1CCNc1nc(-c2ccc([N+](=O)[O-])c(Cl)c2)cs1 | inactive: 3.82% |
| CC(C)C(NS(=O)(=O)c1cccc2nsnc12)C(=O)N1CCn2c1nc1ccccc12 (stereo unspecified) | inactive: 6.58% |
| Cc1nc2ccccc2n1CC(=O)NCCN1CCOCC1 | inactive: -0.87% |

Source: PubChem BioAssay AID504692 (The Scripps Research Institute Molecular Screening Center, 2011)
